According to ChEMBL document CHEMBL1130041, “Halogenated 4-(phenoxymethyl)piperidines as potential radiolabeled probes for sigma-1 receptors: in vivo evaluation of [123I]-1-(iodopropen-2-yl)-4-[(4-cyanophenoxy)methyl]pip eri dine” (J Med Chem, 1997):

Experiment: Ki ratio measured as Ki of sigma-2 receptor to that of sigma-1 receptor.

Ratio: 33.5
SMILES: N#Cc1ccc(OCC2CCN(CCCF)CC2)cc1
